Values of other authors, collected in US10906890B2, “Triazole phenyl compounds as agonists of the APJ receptor” (AMGEN INC., priority 2016, dated 2021).

The chains behind the UniProt entries cited, without tags or fusion partners. Where a name states a change or a piece, a line headed by the entry shows the natural chain unless it says otherwise.
UniProt P35414: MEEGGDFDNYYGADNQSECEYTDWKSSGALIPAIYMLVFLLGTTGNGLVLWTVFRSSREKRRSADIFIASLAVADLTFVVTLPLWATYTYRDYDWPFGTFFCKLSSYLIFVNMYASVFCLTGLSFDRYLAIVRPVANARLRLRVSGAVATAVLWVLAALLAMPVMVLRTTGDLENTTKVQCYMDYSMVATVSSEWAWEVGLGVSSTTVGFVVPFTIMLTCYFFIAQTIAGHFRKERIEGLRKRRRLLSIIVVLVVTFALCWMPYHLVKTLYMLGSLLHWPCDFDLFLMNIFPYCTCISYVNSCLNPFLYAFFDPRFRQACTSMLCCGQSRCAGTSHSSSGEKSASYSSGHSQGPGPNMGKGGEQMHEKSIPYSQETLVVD

Biological target: APJ receptor (Homo sapiens (Human), UniProt P35414)
Conditions: higher affinity than apelin-36; cited from earlier work

Apelin-13
in vitro affinity to the APJ receptor relative to apelin-36: ~3.5 fold
